Screening results as filed in PubChem BioAssay.
Most compounds without a hit are left out; they make up all but 4.2% or so of the library.
ALR inh: inhibitors of human ALR sulfhydryl oxidase, primary screen, biochemical, H2O2 detection, HRP-luminol luminescence, single point; FAD-linked sulfhydryl oxidase ALR (Homo sapiens), P55789; purified ALR, DTT oxidation; inhibition, % (concentration not given with the values); AID 485317, 2010; actives 3.8% (n = 290,000);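 active means mean and each replicate at 75% or more; inconclusive means only one of the two met; inactive means neither met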;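 further: stock transfer was 7.5 nL into about 7.5 µL; 0% = neutral wells and 100% = wells with inactivated enzyme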
MC4R antag cAMP: blocks human MC4R cAMP signaling | 0.48% of 360,000 active | MC4R-expressing cells, MTII-stimulated cAMP, LANCE TR-FRET | inhibition, % at 6.5 µM | P32245;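 active means inhibition above its plate's cutoff, the mean of tested wells on that plate plus 3 SD, cut at about 29% in these data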;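 further: 0% = Melanotan II alone and 100% = Melanotan II plus saturating MCL0020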
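material = U2OS cells stably expressing human melanocortin 4 receptor (MC4R) | also added = Melanotan II challenge | dosing = single nominal compound dose of 6.5 µM | detection = TR-FRET with Eu-cAMP and labeled anti-cAMP, 671 nm | replication = singlicate | timing = compound 30 min, challenge 1 h, detection 1 h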
NALP1 inh: NALP1 inhibition; S. cerevisiae NALP1/ASC/caspase-1 growth, X-gal OD620, 72 h; inhibition, % at 10 µM; 0.61% of 280,000 active; in the data active means inhibition mostly above about 24%, no sharp cut-off; inactive means mostly below about 32%
MC4R barr agon: activates human MC4R beta-arrestin recruitment; P32245; U2OS MC4R beta-arrestin complementation, luminescence; percent of melanotan II response, DMSO zero; activation, % at 8.9 µM; 0.98% of 360,000 active; AID 540308;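 active means activation above a per-plate cutoff, the mean activation of sample wells on that plate plus 3 SD, cut at about 8% in these data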
HDAC3 inhib: human HDAC3 inhibition. recombinant HDAC3, fluorogenic peptide/trypsin coupled, fluorescence. inhibition, % at 8.3 µM. 0.15% of 320,000 active. AID 2718; in the data active means inhibition above about 26%, passing the limit was not always enough
UUG fidelity: yeast start codon fidelity modulation | S. cerevisiae UUG-firefly luciferase reporter, luminescence/redox ratio | activity score, % at 18.7 µM | 0.13% of 350,000 active | AID 602363;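 active means replicate mean at a twofold rise or more, about +100% in these data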;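 further: firefly luciferase made from a UUG start codon reports start codon fidelity; reporter light over untreated wells divided by growth signal over untreated wells; some hits fall short of that in this replicate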
cAMP nonselect: U2OS forskolin cAMP inhibition counter-screen; parental U2OS, LANCE TR-FRET; 26% of 1,600 active; shares compounds with MC4R antag cAMP; AID 602193; inhibition, % at 6.5 µM;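 active means mean inhibition over triplicates above the low-control well mean plus 3 SD, set per campaign, cut at about 13% in these data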;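 further: signal is single emission at 671 nm which falls as cellular cAMP rises; 0% = forskolin-stimulated wells and 100% = buffer without forskolin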
MC4R antag conf: human MC4R cAMP antagonism confirmation. MC4R-expressing cells, MTII-stimulated cAMP, TR-FRET. 27% of 1,600 active. shares compounds with MC4R antag cAMP. inhibition, % at 6.5 µM. AID 602195; in the data active means inhibition above about 29%;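 further: 0% = agonist stimulated wells alone and 100% = agonist stimulated wells plus saturating reference antagonist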
The depositor's hits bear a star; . = not tested or not shown.

SMILES	ALR inh	MC4R antag cAMP	NALP1 inh	MC4R barr agon	HDAC3 inhib	UUG fidelity	cAMP nonselect	MC4R antag conf
Cc1ccc(C(=O)CSc2cc(C)nc(SCC(=O)c3ccccc3)n2)cc1	.	8.0	18.8	0.2	1.9	-14.3	.	.
COc1cc2c(cc1NC(=O)CN1C(=O)NC3(CCc4ccccc43)C1=O)oc1ccccc12 (stereo not drawn)	-2.6	44.5*	18.7	-0.3	5.2	-2.3	2.3	26.6
Cc1noc(C)c1NC(=O)Nc1ccc2c(c1)C(=O)N(C)[C@@H]1CC[C@@H](CC(=O)N(C)C)O[C@H]1CO2	.	.	.	.	.	-2.6	.	.
C#CCn1ccc(O)c(Cc2c(F)cccc2Cl)c1=O	-11.6	22.9	-5.8	-0.7	0.2	-7.1	.	.
O=c1c(Cc2c(F)cccc2Cl)c(O)ccn1CCCN1CCOCC1	3.6	30.5*	10.3	0.9	-7.0	.	-7.1	-20.0
CCOC(=O)/C=C/C(=O)Nc1cccc([N+](=O)[O-])c1	.	34.2*	80.7*	-4.7	0.5	.	25.8*	60.1*
CCOC(=O)c1cccc(NC(=O)/C=C/c2cccc([N+](=O)[O-])c2)c1	-77.4	0.0	7.2	5.1	-7.9	-1.1	.	.
CCOC(=O)c1c(C)[nH]c(C)c1C(=O)COC(=O)c1cc(OC)cc(OC)c1	-9.7	-2.9	8.6	-2.8	8.9	.	.	.
CCOC(=O)c1c(C)[nH]c(C)c1C(=O)COC(=O)c1cc(OC)c(OC)cc1OC	3.1	31.7*	-2.5	0.8	4.6	.	-3.7	1.6
CN(Cc1ccccc1)C(=C(Cl)Cl)/C(=C1/NCCN1C)[N+](=O)[O-]	9.0	39.2*	5.4	-1.1	3.8	.	1.7	2.7
CN(Cc1ccccc1)C(=C(Cl)Cl)C(=C1NCCN1)[N+](=O)[O-]	-2.9	3.7	35.5	-1.1	-1.9	.	.	.
Cn1c(-c2ccccc2)n[nH]c1=S	92.6*	32.7*	-4.8	-2.0	-3.1	3.2	3.3	7.5
Cc1cccc(-c2n[nH]c(=S)n2C)c1	5.2	-1.0	-15.4	-2.9	2.2	.	.	.
COc1ccc(C(=O)N2C[C@H]3[C@@H](c4ccccc42)[C@@H](CO)N3C(=O)c2cccc(F)c2)cc1	.	.	.	.	.	-6.9	.	.
CSCCC(NC(=O)c1ccc([N+](=O)[O-])cc1Cl)C(=O)OCC(=O)NC1CCCC(C)C1C (stereo not drawn)	-28.6	33.0*	40.9	2.2	11.3	.	17.0*	40.0*

Next part (2 carried over from the part before).
SMILES	ALR inh	MC4R antag cAMP	NALP1 inh	MC4R barr agon	HDAC3 inhib	UUG fidelity	cAMP nonselect	MC4R antag conf
COc1ccc(C(=O)N2C[C@H]3[C@@H](c4ccccc42)[C@@H](CO)N3C(=O)c2cccc(F)c2)cc1	.	.	.	.	.	-6.9	.	.
CSCCC(NC(=O)c1ccc([N+](=O)[O-])cc1Cl)C(=O)OCC(=O)NC1CCCC(C)C1C (stereo not drawn)	-28.6	33.0*	40.9	2.2	11.3	.	17.0*	40.0*
CSCCC(NC(=O)c1ccc([N+](=O)[O-])cc1Cl)C(=O)OCC(=O)NC(=O)CN1CCCC1=O (stereo not drawn)	-32.8	0.9	.	-3.4	-23.5	-2.0	.	.
CSCCC(NC(=O)c1ccc([N+](=O)[O-])cc1Cl)C(=O)OC1CCCCC1=O (stereo not drawn)	-4.0	30.9*	8.4	0.1	-1.5	6.0	14.4*	39.0*
C[C@H](CO)N1C[C@H](C)[C@@H](CN(C)Cc2ccc(Cl)c(Cl)c2)OCCCC[C@H](C)Oc2ccc(NS(=O)(=O)c3ccc(F)cc3)cc2C1=O	.	.	.	.	.	19.5	.	.
CC(C)CC#Cc1cnc2c(c1)C(=O)N([C@@H](C)CO)C[C@@H](C)[C@H](CN(C)C(=O)c1ccc(F)cc1)O2	.	.	.	.	.	-4.4	.	.
OC[C@H]1[C@H](c2ccc(C#CC3(O)CCCC3)cc2)[C@H]2CN(Cc3cncnc3)CCCCN21	.	.	.	.	.	6.9	.	.
Cc1ccc(S(=O)(=O)N2CCCCC2)cc1NC(=O)COC(=O)c1cc[n+]([O-])cc1	-18.2	29.1*	10.4	1.6	-0.4	.	2.6	-4.3
Cc1ccc(S(=O)(=O)N2CCOCC2)cc1NC(=O)COC(=O)c1cc[n+]([O-])cc1	-0.9	6.4	.	-0.3	-1.1	7.9	.	.
CCOC(=O)C1=C(O)/C(=C/c2ccc(OCC(=O)O)c(OCC)c2)SC1=Nc1ccc(C)cc1	20.6	28.6*	1.2	-0.1	6.5	.	-5.5	-1.9
O=S(=O)(Cc1cc(Cl)nc(-c2ccncc2)n1)c1ccccc1	57.5	42.3*	1.2	-2.6	0.8	.	5.5	15.3
O=S(=O)(Cc1cc(Cl)nc(-c2ccccc2)n1)c1ccccc1	3.8	5.0	41.5	-1.2	8.1	.	.	.
CC(C)C#Cc1cnc2c(c1)C(=O)N([C@H](C)CO)C[C@H](C)[C@H](CN(C)C(=O)Nc1ccc(F)cc1)O2	.	.	.	.	.	15.2	.	.
O=S(=O)(Nc1ccccc1-c1ccccc1)c1ccccc1	.	2.8	.	-2.1	.	-3.5	.	.
O=C(O)c1cccc(S(=O)(=O)Nc2ccccc2-c2ccccc2)c1	-2.3	29.1*	-13.4	0.4	5.1	.	2.9	-8.3
C[C@H](CO)N1C[C@H](C)[C@@H](CN(C)C(=O)C2CCC2)Oc2ncc(-c3cccc(F)c3)cc2C1=O	.	.	.	.	.	10.7	.	.
Cc1cc(SCC(=O)N/N=C/c2ccco2)nc2ccccc12	57.9	29.1*	6.2	0.6	6.8	.	-3.2	-5.9
CCc1cc2ccc(OC)cc2nc1SCC(=O)N1CCN(C(=O)c2ccco2)CC1	-0.8	33.6*	.	-1.1	1.5	-3.1	1.7	18.4
CCc1cc2ccc(OC)cc2nc1SCC(=O)NNC(=O)c1ccco1	48.6	2.0	-9.5	-2.0	0.0	.	.	.
CC1CCCN(S(=O)(=O)c2ccc(NC(=O)CNC3CCCC3)cc2)C1 (stereo not drawn)	-3.3	-5.5	15.1	1.6	2.7	-14.4	.	.
CCC1CCCCN1S(=O)(=O)c1ccc(NC(=O)c2ccncc2)cc1 (stereo not drawn)	-18.3	5.5	16.8	-3.6	0.6	-14.5	.	.
CCC1CCCCN1S(=O)(=O)c1ccc(NC(=O)c2nc(S(C)(=O)=O)ncc2Cl)cc1 (stereo not drawn)	77.1*	82.5*	4.0	-4.0	3.9	-0.6	10.8	65.5*
CCS(=O)(=O)c1ncc(Cl)c(C(=O)Nc2ccc(S(=O)(=O)N3CCCC(C)C3)cc2)n1 (stereo not drawn)	62.8	41.1*	9.9	-4.2	10.1	4.2	-40.9	19.6
Cc1cc(C)c(S(=O)(=O)N(C)CC(=O)NCc2ccccn2)c(C)c1	0.8	1.5	12.2	0.1	6.8	.	.	.
Cc1cc(C)c(S(=O)(=O)NCC(=O)NCc2ccccn2)c(C)c1	-1.0	30.4*	-24.9	-2.6	3.5	.	0.3	-1.8
O=C(C#Cc1ccccc1)c1ccccc1	.	51.0*	.	-0.9	.	-3.9	29.4*	36.4*
O=S(=O)(c1ccccc1)N1C[C@H]2[C@@H](c3ccccc31)[C@@H](CO)N2Cc1ccccc1	.	.	.	.	.	-9.2	.	.
CC(C)CCNc1nnnc2c1sc1nc(N3CCOCC3)c3c(c12)CC(C)(C)SC3	-11.0	5.5	1.7	2.9	-3.4	-22.5	.	.

Reformatted with values under each structure: part of the list above.
Fields – ALR inh	MC4R antag cAMP	NALP1 inh	MC4R barr agon	HDAC3 inhib	UUG fidelity	cAMP nonselect	MC4R antag conf
> CC1CCCN(S(=O)(=O)c2ccc(NC(=O)CNC3CCCC3)cc2)C1 (stereo not drawn)
→ -3.3	-5.5	15.1	1.6	2.7	-14.4	.	.
> CCC1CCCCN1S(=O)(=O)c1ccc(NC(=O)c2ccncc2)cc1 (stereo not drawn)
→ -18.3	5.5	16.8	-3.6	0.6	-14.5	.	.
> CCC1CCCCN1S(=O)(=O)c1ccc(NC(=O)c2nc(S(C)(=O)=O)ncc2Cl)cc1 (stereo not drawn)
→ 77.1*	82.5*	4.0	-4.0	3.9	-0.6	10.8	65.5*
